Some compounds may have been tested in ways that are not shown here.
Assays:
NLRP3 = details: FLECS; cited from earlier work
[1] = tested on: NLRP3-dependent pyroptosis in differentiated THP-1 cells; assay: NLRP3-dependent pyroptosis (LDH release) in PMA-differentiated, LPS-primed, ATP-triggered THP-1 cells; assay type: cell-based, human; details: 10 µM test compound, 1 h before ATP (5 mM, 90 min); vs vehicle-treated cells; mean ± SEM; NA = not active at 10 µM
THP-1 cells = assay: Cytotoxicity, MTT assay, 72 h; details: 72 h treatment, 0.1–100 µM, TC50 ± SEM of three experiments

Compound | Binding to NLRP3 (NLRP3) | Pyroptosis Decrease, % inhibition at 10 µM [1] | Cytotoxicity TC50 (THP-1 cells) [µM]
Cc1cc(C(=O)CN2CCC(n3c(=O)[nH]c4ccccc43)CC2)c(C)n1C | able to bind to NLRP3 | – | –
O=c1[nH]c2ccccc2n1C1CCN(Cc2ccccc2Cl)CC1 | – | inactive | 72.6 ± 3.3

Source: article PMC8271538, “Chemical Modulation of the 1-(Piperidin-4-yl)-1,3-dihydro-2H-benzo[d]imidazole-2-one Scaffold as a Novel NLRP3 Inhibitor” (Molecules, 2021)
